In patent US6825348B2, “Antiviral compounds” (Academia Sinica, priority 2002, dated 2004):

System: MSV
Conditions: MSV-infected NMRI mice, i.p.

Nc1ncnc2c1ncn2CCOCP(=O)(O)O [PMEA 4, 9-[2-(phosphonomethoxy)ethyl]adenine, reference compound]
weight loss of the surviving animals relative to 28-treated mice: at least two times more
